From FireProtDB (doi:10.1038/nsb0696-497)

B1: Alpha-1-antitrypsin, P01009 (parent)
chain: MPSSVSWGILLLAGLCCLVPVSLAEDPQGDAAQKTDTSHHDQDHPTFNKITPNLAEFAFSLYRQLAHQSNSTNIFFSPVSIATAFAMLSLGTKADTHDEILEGLNFNLTEIPEAQIHEGFQELLRTLNQPDSQLQLTTGNGLFLSEGLKLVDKFLEDVKKLYHSEAFTVNFGDTEEAKKQINDYVEKGTQGKIVDLVKELDRDTVFALVNYIFFKGKWERPFEVKDTEEEDFHVDQVTTVKVPMMKRLGMFNIQHCKKLSSWVLLMKYLGNATAIFFLPDEGKLQHLENELTHDIITKFLENEDRRSASLHLPKLSITGTYDLKSVLGQLGITKVFSNGADLSGVTEEAPLKLSKAVHKAVLTIDEKGTEAAGAMFLEAIPMSIPPEVKFNKPFVFLMIEQNTKSPLFMGKVVNPTQK

Variants of: B1
Details: Homo sapiens; pH 6.5; 25 °C; Urea; CD; Potassium phosphate 10 mM; NaCl 50 mM; reversible: Unknown; structure 1QLP; whole UniProt chain shown

| Variant | ddG of mutation (higher = less stable) [kcal/mol] |
| --- | --- |
| MPSSVSWGILLLAGLCCLVPVSLAEDPQGDAAQKTDTSHHDQDHPTFNKITPNLAEFAFSLYRQLAHQSNSTNILFSPVSIATAFAMLSLGTKADTHDEILEGLNFNLTEIPEAQIHEGFQELLRTLNQPDSQLQLTTGNGLFLSEGLKLVDKFLEDVKKLYHSEAFTVNFGDTEEAKKQINDYVEKGTQGKIVDLVKELDRDTVFALVNYIFFKGKWERPFEVKDTEEEDFHVDQVTTVKVPMMKRLGMFNIQHCKKLSSWVLLMKYLGNATAIFFLPDEGKLQHLENELTHDIITKFLENEDRRSASLHLPKLSITGTYDLKSVLGQLGITKVFSNGADLSGVTEEAPLKLSKAVHKAVLTIDEKGTEAAGAMFLEAIPMSIPPEVKFNKPFVFLMIEQNTKSPLFMGKVVNPTQK [F75L] | -2.1 |
| MPSSVSWGILLLAGLCCLVPVSLAEDPQGDAAQKTDTSHHDQDHPTFNKITPNLAEFAFSLYRQLAHQSNSTNILFSPVSIATAFAMLSLGTKADTHDEILEGLNFNLTEIPEAQIHEGFQELLRTLNQPDSQLQLTTGNGLFLSEGLKLVDKFLEDVKKLYHSEAFTVNFGDTEEAKKQINDYVEKGTQGKIVDLVKELDRDTVFALVNYIFFKGKWERPFEVKDTEEEDFHVDQVTTVKVPMMKRLGMFNIQHCKKLSSWVLLMKYLGNATAIFFLPDEGKLQHLENELTHDIITKFLENEDRRSASLHLPKLSITGTYDLKSVLGQLGITKVFSNGADLSGVTEEAPLKLSKAVHKAVLTIDEKGTEAAGAMFLEAIPMSIPPEVKFNKPFVFLIIEQNTKSPLFMGKVVNPTQK [F75L M398I] | -3.6 |
| MPSSVSWGILLLAGLCCLVPVSLAEDPQGDAAQKTDTSHHDQDHPTFNKITPNLAEFAFSLYRQLAHQSNSTNIFFSPVSIAAAFAMLSLGTKADTHDEILEGLNFNLTEIPEAQIHEGFQELLRTLNQPDSQLQLTTGNGLFLSEGLKLVDKFLEDVKKLYHSEAFTVNFGDTEEAKKQINDYVEKGTQGKIVDLVKELDRDTVFALVNYIFFKGKWERPFEVKDTEEEDFHVDQVTTVKVPMMKRLGMFNIQHCKKLSSWVLLMKYLGNATAIFFLPDEGKLQHLENELTHDIITKFLENEDRRSASLHLPKLSITGTYDLKSVLGQLGITKVFSNGADLSGVTEEAPLKLSKAVHKAVLTIDEKGTEAAGAMFLEAIPMSIPPEVKFNKPFVFLMIEQNTKSPLFMGKVVNPTQK [T83A] | -1 |
| MPSSVSWGILLLAGLCCLVPVSLAEDPQGDAAQKTDTSHHDQDHPTFNKITPNLAEFAFSLYRQLAHQSNSTNIFFSPVSIAAAFAMLSLGAKGDTHDEILEGLNFNLTEIPEAQIHEGFQELLRTLNQPDSQLQLTTGNGLFLSEGLKLVDKFLEDVKKLYHSEAFTVNFGDTEEAKKQINDYVEKGTQGKIVDLVKELDRDTVFALVNYIFFKGKWERPFEVKDTEEEDFHVDQVTTVKVPMMKRLGMFNIQHCKKLSSWVLLMKYLGNATAIFFLPDEGKLQHLENELTHDIITKFLENEDRRSASLHLPKLSITGTYDLKSVLGQLGITKVFSNGADLSGVTEEAPLKLSKAVHKAVLTIDEKGTEAAGAMFLEAIPMSIPPEVKFNKPFVFLMIEQNTKSPLFMGKVVNPTQK [T83A T92A A94G] | -3.4 |
| MPSSVSWGILLLAGLCCLVPVSLAEDPQGDAAQKTDTSHHDQDHPTFNKITPNLAEFAFSLYRQLAHQSNSTNIFFSPVSIATAFAMLSLGAKADTHDEILEGLNFNLTEIPEAQIHEGFQELLRTLNQPDSQLQLTTGNGLFLSEGLKLVDKFLEDVKKLYHSEAFTVNFGDTEEAKKQINDYVEKGTQGKIVDLVKELDRDTVFALVNYIFFKGKWERPFEVKDTEEEDFHVDQVTTVKVPMMKRLGMFNIQHCKKLSSWVLLMKYLGNATAIFFLPDEGKLQHLENELTHDIITKFLENEDRRSASLHLPKLSITGTYDLKSVLGQLGITKVFSNGADLSGVTEEAPLKLSKAVHKAVLTIDEKGTEAAGAMFLEAIPMSIPPEVKFNKPFVFLMIEQNTKSPLFMGKVVNPTQK [T92A] | -1 |
| MPSSVSWGILLLAGLCCLVPVSLAEDPQGDAAQKTDTSHHDQDHPTFNKITPNLAEFAFSLYRQLAHQSNSTNIFFSPVSIATAFAMLSLGTKGDTHDEILEGLNFNLTEIPEAQIHEGFQELLRTLNQPDSQLQLTTGNGLFLSEGLKLVDKFLEDVKKLYHSEAFTVNFGDTEEAKKQINDYVEKGTQGKIVDLVKELDRDTVFALVNYIFFKGKWERPFEVKDTEEEDFHVDQVTTVKVPMMKRLGMFNIQHCKKLSSWVLLMKYLGNATAIFFLPDEGKLQHLENELTHDIITKFLENEDRRSASLHLPKLSITGTYDLKSVLGQLGITKVFSNGADLSGVTEEAPLKLSKAVHKAVLTIDEKGTEAAGAMFLEAIPMSIPPEVKFNKPFVFLMIEQNTKSPLFMGKVVNPTQK [A94G] | -1.6 |
| MPSSVSWGILLLAGLCCLVPVSLAEDPQGDAAQKTDTSHHDQDHPTFNKITPNLAEFAFSLYRQLAHQSNSTNIFFSPVSIATAFAMLSLGTKADTHDEILEGLNFNLTEIPEAQIHEGFQELLRTLNQPDSQLQLTTGNGLFLSEGLKLVDKFLEDVKKLYHSEAFTVNFGDTEEAKKQINDYVEKGTQGKIVDLVKELDRDTVFALVNYIFFKGKWERPFEVKDTEEEDFHVDQVTTVKVPMMKRLGMFNIQHCKKLSSWVLLMKYLGNATAIFFLPDEGKLQHLENELTHDIITKFLENEDRRSASLHLPKLSITGTYDLKSVLGQLGITKVFSNGADLSGVTEEAPLKLSKAVHKAVLTIDEKGTEAAGAMFLEAIPMSIPPEVKFNKPFVFLIIEQNTKSPLFMGKVVNPTQK [M398I] | -2.3 |
| MPSSVSWGILLLAGLCCLVPVSLAEDPQGDAAQKTDTSHHDQDHPTFNKITPNLAEFAFSLYRQLAHQSNSTNIFFSPVSIATAFAMLSLGTKADTHDEILEGLNFNLTEIPEAQIHEGFQELLRTLNQPDSQLQLTTGNGLFLSEGLKLVDKFLEDVKKLYHSEAFTVNFGDTEEAKKQINDYVEKGTQGKIVDLVKELDRDTVFALVNYIFFKGKWERPFEVKDTEEEDFHVDQVTTVKVPMMKRLGMFNIQHCKKLSSWVLLMKYLGNATAIFFLPDEGKLQHLENELTHDIITKFLENEDRRSASLHLPKLSITGTYDLKSVLGQLGITKVFSNGADLSGVTEEAPLKLSKAVHKAVLTIDEKGTEAAGAMFLEAIPMSIPPEVKFNKPFVFLMIEQNTKAPLFMGKVVNPTQK [S405A] | -1 |
| MPSSVSWGILLLAGLCCLVPVSLAEDPQGDAAQKTDTSHHDQDHPTFNKITPNLAEFAFSLYRQLAHQSNSTNIFFSPVSIATAFAMLSLGTKADTHDEILEGLNFNLTEIPEAQIHEGFQELLRTLNQPDSQLQLTTGNGLFLSEGLKLVDKFLEDVKKLYHSEAFTVNFGDTEEAKKQINDYVEKGTQGKIVDLVKELDRDTVFALVNYIFFKGKWERPFEVKDTEEEDFHVDQVTTVKVPMMKRLGMFNIQHCKKLSSWVLLMKYLGNATAIFFLPDEGKLQHLENELTHDIITKFLENEDRRSASLHLPKLSITGTYDLKSVLGQLGITKVFSNGADLSGVTEEAPLKLSKAVHKAVLTIDEKGTEAAGAMFLEAIPMSIPPEVKFNKPFVFLMIEQNTKAPLFMGRVVNPTQK [S405A K411R] | -2.1 |
| MPSSVSWGILLLAGLCCLVPVSLAEDPQGDAAQKTDTSHHDQDHPTFNKITPNLAEFAFSLYRQLAHQSNSTNIFFSPVSIATAFAMLSLGTKADTHDEILEGLNFNLTEIPEAQIHEGFQELLRTLNQPDSQLQLTTGNGLFLSEGLKLVDKFLEDVKKLYHSEAFTVNFGDTEEAKKQINDYVEKGTQGKIVDLVKELDRDTVFALVNYIFFKGKWERPFEVKDTEEEDFHVDQVTTVKVPMMKRLGMFNIQHCKKLSSWVLLMKYLGNATAIFFLPDEGKLQHLENELTHDIITKFLENEDRRSASLHLPKLSITGTYDLKSVLGQLGITKVFSNGADLSGVTEEAPLKLSKAVHKAVLTIDEKGTEAAGAMFLEAIPMSIPPEVKFNKPFVFLMIEQNTKSPLFMGRVVNPTQK [K411R] | -1 |
